# What was measured:
# Protein sequences, listed by entry. Tags and fused reporters are not part of them. Lines headed by an entry give the natural chain unless they say otherwise; changes in a name come on top.
# UniProt P50750, whole entry: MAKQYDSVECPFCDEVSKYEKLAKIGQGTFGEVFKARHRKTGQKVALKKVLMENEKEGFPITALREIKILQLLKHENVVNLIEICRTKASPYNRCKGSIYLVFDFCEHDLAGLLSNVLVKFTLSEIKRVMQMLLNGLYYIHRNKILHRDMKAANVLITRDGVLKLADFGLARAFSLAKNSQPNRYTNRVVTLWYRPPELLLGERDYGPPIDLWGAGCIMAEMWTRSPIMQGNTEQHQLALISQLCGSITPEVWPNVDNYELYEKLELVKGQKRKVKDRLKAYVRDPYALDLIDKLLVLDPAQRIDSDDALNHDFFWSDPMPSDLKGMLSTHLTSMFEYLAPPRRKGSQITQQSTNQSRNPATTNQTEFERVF
# UniProt Q13464: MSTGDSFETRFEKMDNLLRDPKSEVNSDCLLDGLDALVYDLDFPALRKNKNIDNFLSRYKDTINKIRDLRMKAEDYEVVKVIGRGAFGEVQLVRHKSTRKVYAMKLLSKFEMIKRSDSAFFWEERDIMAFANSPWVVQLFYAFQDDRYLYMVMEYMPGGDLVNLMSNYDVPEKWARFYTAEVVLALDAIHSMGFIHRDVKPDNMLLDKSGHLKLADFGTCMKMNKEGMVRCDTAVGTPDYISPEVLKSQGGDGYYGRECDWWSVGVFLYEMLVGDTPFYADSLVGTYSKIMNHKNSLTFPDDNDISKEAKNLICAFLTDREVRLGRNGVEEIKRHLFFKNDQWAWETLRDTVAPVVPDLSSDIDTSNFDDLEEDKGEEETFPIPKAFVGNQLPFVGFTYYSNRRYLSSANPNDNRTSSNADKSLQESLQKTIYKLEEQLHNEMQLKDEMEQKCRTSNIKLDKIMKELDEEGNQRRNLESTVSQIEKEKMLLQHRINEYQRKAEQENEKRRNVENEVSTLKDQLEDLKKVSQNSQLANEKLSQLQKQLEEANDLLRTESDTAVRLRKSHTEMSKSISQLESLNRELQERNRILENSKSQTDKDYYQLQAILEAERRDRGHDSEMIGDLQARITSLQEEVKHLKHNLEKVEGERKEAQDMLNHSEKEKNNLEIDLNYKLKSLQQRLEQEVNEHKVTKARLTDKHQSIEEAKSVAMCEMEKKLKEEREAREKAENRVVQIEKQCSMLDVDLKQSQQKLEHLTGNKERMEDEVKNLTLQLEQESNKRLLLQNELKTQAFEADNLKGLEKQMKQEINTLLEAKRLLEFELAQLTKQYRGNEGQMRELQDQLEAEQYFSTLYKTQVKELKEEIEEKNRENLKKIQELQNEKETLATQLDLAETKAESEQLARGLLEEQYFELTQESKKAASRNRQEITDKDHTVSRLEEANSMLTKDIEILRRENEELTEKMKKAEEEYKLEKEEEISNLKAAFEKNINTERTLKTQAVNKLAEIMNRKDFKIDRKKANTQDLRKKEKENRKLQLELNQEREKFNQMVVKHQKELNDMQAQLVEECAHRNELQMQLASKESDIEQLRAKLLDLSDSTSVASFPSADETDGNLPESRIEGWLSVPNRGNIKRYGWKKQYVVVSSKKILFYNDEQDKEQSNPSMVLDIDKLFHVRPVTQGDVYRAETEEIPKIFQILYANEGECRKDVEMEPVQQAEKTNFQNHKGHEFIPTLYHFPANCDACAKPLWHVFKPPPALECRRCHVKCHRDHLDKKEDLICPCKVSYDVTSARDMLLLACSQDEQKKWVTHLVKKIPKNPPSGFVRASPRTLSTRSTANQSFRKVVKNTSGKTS
# UniProt P49840: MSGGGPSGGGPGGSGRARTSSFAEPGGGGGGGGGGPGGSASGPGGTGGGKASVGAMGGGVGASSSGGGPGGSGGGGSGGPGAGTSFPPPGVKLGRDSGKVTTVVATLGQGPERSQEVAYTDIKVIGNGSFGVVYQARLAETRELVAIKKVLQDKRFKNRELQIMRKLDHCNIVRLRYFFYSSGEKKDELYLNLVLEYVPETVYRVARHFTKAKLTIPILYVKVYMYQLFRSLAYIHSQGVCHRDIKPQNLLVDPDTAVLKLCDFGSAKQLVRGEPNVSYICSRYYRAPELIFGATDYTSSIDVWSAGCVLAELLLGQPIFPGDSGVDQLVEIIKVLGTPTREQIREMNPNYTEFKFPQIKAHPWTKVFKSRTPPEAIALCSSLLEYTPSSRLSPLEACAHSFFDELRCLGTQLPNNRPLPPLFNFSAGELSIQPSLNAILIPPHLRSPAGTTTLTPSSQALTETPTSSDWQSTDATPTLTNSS
# UniProt P57059: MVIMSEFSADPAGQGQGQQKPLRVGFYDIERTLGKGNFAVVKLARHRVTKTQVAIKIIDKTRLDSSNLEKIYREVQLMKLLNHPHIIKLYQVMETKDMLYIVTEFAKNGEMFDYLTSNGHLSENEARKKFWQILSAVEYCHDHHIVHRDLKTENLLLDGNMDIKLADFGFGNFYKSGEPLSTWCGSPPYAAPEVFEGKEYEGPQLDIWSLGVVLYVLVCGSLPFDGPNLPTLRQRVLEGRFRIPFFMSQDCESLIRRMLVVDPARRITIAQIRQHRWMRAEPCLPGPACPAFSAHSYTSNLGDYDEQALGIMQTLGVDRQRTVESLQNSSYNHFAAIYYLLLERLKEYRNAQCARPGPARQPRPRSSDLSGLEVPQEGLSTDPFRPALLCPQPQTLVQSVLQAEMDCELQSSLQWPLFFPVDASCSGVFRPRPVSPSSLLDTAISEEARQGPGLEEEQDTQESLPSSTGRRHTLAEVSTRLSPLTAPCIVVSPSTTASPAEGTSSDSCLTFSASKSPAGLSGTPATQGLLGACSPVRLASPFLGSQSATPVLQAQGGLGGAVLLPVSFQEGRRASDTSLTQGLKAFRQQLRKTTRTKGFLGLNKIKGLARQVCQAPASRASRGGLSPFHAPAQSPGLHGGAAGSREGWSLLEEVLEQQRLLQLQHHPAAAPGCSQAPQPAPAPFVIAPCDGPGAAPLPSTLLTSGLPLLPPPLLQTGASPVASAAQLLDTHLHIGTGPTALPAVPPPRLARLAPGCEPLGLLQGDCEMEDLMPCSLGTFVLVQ
# UniProt P78368: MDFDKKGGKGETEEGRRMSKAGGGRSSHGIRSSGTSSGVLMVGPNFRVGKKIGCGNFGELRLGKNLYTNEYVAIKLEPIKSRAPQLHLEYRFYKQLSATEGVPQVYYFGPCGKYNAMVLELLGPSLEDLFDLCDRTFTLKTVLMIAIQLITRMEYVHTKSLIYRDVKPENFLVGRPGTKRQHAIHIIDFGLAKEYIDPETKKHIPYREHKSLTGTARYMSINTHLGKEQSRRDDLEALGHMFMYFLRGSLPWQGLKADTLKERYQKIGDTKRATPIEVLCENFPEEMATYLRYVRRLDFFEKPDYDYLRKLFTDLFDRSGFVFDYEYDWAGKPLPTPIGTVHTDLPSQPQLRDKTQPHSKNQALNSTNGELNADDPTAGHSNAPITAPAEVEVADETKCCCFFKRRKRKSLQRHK
# UniProt P06493, whole entry: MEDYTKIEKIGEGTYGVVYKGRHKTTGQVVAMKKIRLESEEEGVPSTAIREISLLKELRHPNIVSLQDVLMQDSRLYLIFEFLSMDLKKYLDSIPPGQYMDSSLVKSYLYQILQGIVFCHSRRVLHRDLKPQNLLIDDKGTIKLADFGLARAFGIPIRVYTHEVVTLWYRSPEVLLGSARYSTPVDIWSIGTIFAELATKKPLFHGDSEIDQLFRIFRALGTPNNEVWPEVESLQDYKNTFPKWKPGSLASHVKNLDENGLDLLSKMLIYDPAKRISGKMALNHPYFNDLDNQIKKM
# UniProt Q15349, whole entry: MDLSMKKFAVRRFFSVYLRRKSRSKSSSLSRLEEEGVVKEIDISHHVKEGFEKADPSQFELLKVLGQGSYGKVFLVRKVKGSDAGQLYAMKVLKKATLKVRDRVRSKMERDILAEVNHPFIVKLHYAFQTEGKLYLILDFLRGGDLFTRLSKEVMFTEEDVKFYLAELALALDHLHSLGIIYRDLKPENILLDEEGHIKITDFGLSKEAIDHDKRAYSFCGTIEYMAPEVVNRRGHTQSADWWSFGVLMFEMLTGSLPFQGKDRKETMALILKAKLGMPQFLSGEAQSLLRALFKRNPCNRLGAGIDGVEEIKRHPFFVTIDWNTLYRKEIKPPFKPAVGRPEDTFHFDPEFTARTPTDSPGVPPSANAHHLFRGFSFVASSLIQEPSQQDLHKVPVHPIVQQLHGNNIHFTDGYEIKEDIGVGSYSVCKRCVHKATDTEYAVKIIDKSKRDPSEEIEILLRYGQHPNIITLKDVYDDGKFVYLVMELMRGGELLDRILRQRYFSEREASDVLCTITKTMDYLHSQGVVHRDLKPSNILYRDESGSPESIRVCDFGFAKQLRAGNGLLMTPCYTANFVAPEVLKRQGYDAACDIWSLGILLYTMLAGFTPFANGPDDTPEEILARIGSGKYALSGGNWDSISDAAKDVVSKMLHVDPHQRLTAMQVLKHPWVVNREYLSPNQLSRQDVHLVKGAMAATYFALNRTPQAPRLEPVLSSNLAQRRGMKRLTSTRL
# Assay in all cases: Kinase Profiling Assay
# Format in all cases: biochemical
# Conditions in all cases: 100 μM
# IR(h), activated = IR(h), activated (Homo sapiens, UniProt P06213)
# CDK9/cyclin T1(h) = CDK9/cyclin T1(h) (Homo sapiens, UniProt P50750)
# Ret(V804M)(h) = Ret(V804M)(h) (Homo sapiens, UniProt P07949, V804M)
# ROCK-I(h) = ROCK-I(h) (Homo sapiens, UniProt Q13464)
# EphA1(h) = biological target: T1, EphA1(h) (Homo sapiens, UniProt P21709)
# T1 sequence (P21709 26-976): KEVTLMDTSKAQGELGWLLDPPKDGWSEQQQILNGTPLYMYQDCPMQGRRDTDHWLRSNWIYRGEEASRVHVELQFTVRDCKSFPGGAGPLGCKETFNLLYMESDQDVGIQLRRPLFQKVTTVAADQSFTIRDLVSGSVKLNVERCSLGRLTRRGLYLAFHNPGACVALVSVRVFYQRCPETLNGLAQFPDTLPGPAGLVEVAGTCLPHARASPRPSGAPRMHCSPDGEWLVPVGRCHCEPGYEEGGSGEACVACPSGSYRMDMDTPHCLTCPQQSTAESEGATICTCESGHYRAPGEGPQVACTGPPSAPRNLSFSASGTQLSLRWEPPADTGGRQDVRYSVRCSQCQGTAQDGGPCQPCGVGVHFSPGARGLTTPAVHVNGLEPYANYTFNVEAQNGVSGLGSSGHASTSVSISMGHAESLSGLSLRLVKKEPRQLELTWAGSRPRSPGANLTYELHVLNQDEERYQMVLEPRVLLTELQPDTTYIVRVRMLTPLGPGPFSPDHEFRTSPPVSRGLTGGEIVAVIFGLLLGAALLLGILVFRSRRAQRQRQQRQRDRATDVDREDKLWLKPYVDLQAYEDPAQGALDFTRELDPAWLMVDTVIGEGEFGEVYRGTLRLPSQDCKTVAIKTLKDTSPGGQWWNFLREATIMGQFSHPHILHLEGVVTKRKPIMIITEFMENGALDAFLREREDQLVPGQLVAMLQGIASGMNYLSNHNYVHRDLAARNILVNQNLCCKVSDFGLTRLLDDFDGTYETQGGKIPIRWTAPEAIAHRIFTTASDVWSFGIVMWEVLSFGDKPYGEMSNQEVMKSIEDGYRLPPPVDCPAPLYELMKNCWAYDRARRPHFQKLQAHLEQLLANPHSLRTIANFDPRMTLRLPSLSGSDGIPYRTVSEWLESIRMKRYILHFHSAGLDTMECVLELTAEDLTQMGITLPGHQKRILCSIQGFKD
# GSK3α(h) = GSK3α(h) (Homo sapiens, UniProt P49840)
# Ab1(H396P)(h) = Ab1(H396P)(h) (Homo sapiens, UniProt P00519, H396P)
# SIK(h) = SIK(h) (Homo sapiens, UniProt P57059)
# JAK3(h) = biological target: T2, JAK3(h) (Homo sapiens, UniProt P52333)
# T2 sequence (P52333 1-1124): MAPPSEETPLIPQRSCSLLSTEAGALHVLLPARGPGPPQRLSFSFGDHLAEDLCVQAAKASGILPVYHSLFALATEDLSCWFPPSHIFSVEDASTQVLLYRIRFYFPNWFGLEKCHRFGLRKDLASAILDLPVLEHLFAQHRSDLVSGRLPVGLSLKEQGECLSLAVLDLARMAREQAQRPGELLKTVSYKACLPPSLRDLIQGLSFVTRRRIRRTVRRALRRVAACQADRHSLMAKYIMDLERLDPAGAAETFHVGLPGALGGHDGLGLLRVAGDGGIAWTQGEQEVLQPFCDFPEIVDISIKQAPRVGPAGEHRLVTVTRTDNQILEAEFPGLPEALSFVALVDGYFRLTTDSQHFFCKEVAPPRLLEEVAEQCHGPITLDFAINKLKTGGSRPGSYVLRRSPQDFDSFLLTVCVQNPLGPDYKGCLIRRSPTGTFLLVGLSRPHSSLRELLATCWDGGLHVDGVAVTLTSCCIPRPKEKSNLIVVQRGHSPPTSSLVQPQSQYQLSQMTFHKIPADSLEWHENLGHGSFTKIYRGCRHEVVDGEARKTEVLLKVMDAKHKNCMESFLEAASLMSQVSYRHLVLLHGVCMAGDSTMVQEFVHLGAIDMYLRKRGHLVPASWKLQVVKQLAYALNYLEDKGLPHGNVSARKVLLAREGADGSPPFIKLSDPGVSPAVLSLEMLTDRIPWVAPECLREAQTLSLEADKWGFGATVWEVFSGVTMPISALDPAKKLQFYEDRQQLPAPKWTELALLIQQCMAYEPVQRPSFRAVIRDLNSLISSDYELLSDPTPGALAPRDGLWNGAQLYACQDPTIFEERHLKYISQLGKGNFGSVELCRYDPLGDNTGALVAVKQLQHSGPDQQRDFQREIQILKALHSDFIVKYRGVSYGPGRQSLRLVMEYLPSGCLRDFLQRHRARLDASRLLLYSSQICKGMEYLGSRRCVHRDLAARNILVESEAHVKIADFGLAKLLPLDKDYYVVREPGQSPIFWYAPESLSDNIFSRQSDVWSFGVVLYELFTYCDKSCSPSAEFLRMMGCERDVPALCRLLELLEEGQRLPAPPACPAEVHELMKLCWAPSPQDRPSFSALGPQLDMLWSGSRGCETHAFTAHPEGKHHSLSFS
# CK1γ2(h) = CK1γ2(h) (Homo sapiens, UniProt P78368)
# CDK1/cyclinB(h) = CDK1/cyclinB(h) (Homo sapiens, UniProt P06493)
# Flt3(D835Y)(h) = Flt3(D835Y)(h) (Homo sapiens, UniProt P36888, D835Y)
# Rsk3(h) = Rsk3(h) (Homo sapiens, UniProt Q15349)
# cKit(V654A)(h) = cKit(V654A)(h) (Homo sapiens, UniProt P10721, V654A)
sequence,measurement,setting,value
YARAAARQARAKALNRQLGVA (Mammalian) [MMI-0200],% activity,"IR(h), activated",105%
same,% activity,CDK9/cyclin T1(h),103%
same,% activity,Ret(V804M)(h),105%
same,% activity,ROCK-I(h),117%
same,% activity,EphA1(h),136%
same,% activity,GSK3α(h),119%
same,% activity,Ab1(H396P)(h),121%
same,% activity,SIK(h),102%
same,% activity,JAK3(h),117%
same,% activity,CK1γ2(h),104%
same,% activity,CDK1/cyclinB(h),115%
same,% activity,Flt3(D835Y)(h),115%
same,% activity,Rsk3(h),109%
same,% activity,cKit(V654A)(h),113%
